Source: PubChem BioAssay AID1987 (The Scripps Research Institute Molecular Screening Center, 2009)
Only a part is listed here, and it is no random draw. Activity calls are given as the source filed them.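 The calls were made as follows: active = inhibition above the campaign's mean inhibition across all tested compounds plus 3 SD (cut at about 9.5% in these data); inactive = the rest.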

Sequences of proteins named here, by UniProt entry; tags and fusion partners are left off.
UniProt P53041, whole entry: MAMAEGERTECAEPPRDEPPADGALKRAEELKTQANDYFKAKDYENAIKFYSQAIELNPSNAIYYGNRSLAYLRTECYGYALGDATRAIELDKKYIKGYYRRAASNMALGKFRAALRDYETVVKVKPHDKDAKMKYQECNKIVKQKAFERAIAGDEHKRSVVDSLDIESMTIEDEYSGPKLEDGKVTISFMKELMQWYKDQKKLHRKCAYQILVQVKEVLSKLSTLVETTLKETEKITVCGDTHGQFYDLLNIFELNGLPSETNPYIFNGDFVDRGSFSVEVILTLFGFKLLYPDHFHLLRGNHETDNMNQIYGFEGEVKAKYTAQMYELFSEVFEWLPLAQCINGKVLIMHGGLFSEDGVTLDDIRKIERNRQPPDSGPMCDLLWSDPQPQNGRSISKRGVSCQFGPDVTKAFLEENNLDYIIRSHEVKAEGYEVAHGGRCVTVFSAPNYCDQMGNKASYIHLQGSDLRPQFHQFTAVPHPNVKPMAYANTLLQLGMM

What follows are compounds tested against Serine/threonine-protein phosphatase 5 (Homo sapiens) (UniProt P53041) (assay: PP5 phosphatase inhibitors, primary screen, biochemical, fluorescence (AID 1987;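 also: 0% = DMSO only and 100% = 100 µM cantharidin control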)). Settings: purified PP5c, OMFP substrate fluorescence; at 6.7 µM; hits give high values.

| SMILES | inhibition |
| --- | --- |
| COc1ccccc1OP(C)(=O)Nc1ccccc1Br (configuration not stated) | inactive: 0.26% |
| CC(C)(C)c1ccc(OP(C)(=O)O)cc1 | inactive: -0.59% |
| CP(=O)(Nc1ccc(Cl)cc1)Oc1ccc(F)cc1 (configuration not stated) | inactive: -0.78% |
| CN(C)C(=O)c1c([N+](=O)[O-])cc([N+](=O)[O-])cc1[N+](=O)[O-] | inactive: -2.28% |
| CCN(CC)CC(O)COC(=O)C(O)(c1ccccc1)C1CCCCC1 (configuration not stated) | inactive: 2.65% |
| COc1ccc(OP(C)(=O)Nc2ccc(Br)cc2)cc1 (configuration not stated) | inactive: 0.05% |
| COc1ccccc1OP(C)(=O)Nc1c(C)n(C)n(-c2ccccc2)c1=O (configuration not stated) | inactive: 2.82% |
| O=C(OCCCN1CCCC1)C(O)(c1ccccc1)C1CCCCC1 (configuration not stated) | inactive: -0.68% |
| CP(=O)(Oc1ccccc1)N1CCOC1=O (configuration not stated) | inactive: -0.03% |
| CCc1ccc(OP(C)(=O)Nc2cccnc2)cc1 (configuration not stated) | inactive: -1.38% |
| Nc1ccc2c(ccc3cccnc32)n1.O=[N+]([O-])c1cc([N+](=O)[O-])c(O)c([N+](=O)[O-])c1 | inactive: -0.59% |
| CCOC(=O)c1ccc(NP(C)(=O)Oc2ccc(Cl)cc2)cc1 (configuration not stated) | inactive: 4.97% |
| CP(=O)(OC12CC3CC(CC(C3)C1)C2)OC12CC3CC(CC(C3)C1)C2 | inactive: 0.7% |
| Cc1nc2ccc3ccccc3c2o1.O=[N+]([O-])c1cc([N+](=O)[O-])c(O)c([N+](=O)[O-])c1 | inactive: 1.11% |
| CP(=O)(Nc1ccc(Cl)cc1Cl)Oc1ccccc1 (configuration not stated) | inactive: -1.59% |
| CP(=O)(OCCOc1ccccc1)OCCOc1ccccc1 | inactive: 0.82% |
| Cc1cc(C)cc(OP(C)(=O)Nc2cccc(C(F)(F)F)c2)c1 (configuration not stated) | inactive: 1.15% |
| COc1ccccc1OP(C)(=O)Nc1ccc(C)c(C)c1 (configuration not stated) | inactive: 2.95% |
| COc1ccc(OP(C)(=O)Nc2ccccc2Br)cc1 (configuration not stated) | inactive: 1.42% |
| Cc1c(NP(C)(=O)Oc2ccc(C(C)C)cc2)c(=O)n(-c2ccccc2)n1C (configuration not stated) | inactive: 0.82% |
| O=[N+]([O-])c1cc([N+](=O)[O-])c(Nc2ccccn2)c([N+](=O)[O-])c1 | inactive: 1.48% |
| CP(=O)(Nc1ccccn1)Oc1ccccc1 (configuration not stated) | inactive: -1.01% |
| COc1ccccc1OP(C)(=O)Nc1ccc(C)cc1C (configuration not stated) | inactive: 2.28% |
| CCc1ccc(OP(C)(=O)O)cc1 | inactive: -1.35% |
| COc1ccccc1OP(C)(=O)Nc1ccc(Br)cc1 (configuration not stated) | inactive: 1.25% |
| COc1ccc(OP(C)(=O)Nc2ccccn2)cc1 (configuration not stated) | inactive: 0.48% |
| CN(C)CCOC(=O)C(O)(c1ccccc1)C1CCCC1 (configuration not stated) | inactive: 1.71% |
